Assay results published in patent US4118424A, “Biodegradable insecticides” (priority 1976, dated 1978).

System: mice
Test: Mouse toxicity, oral, Table I
Format: in vivo
Settings: oral administration
Protocol: Dianisyl-2-chloropropane ("DCP") was tested for insecticidal activities using standard methods and compared with the activities of DDT and methoxychlor. In addition, DCP was tested for mouse toxicity, fish toxicity and biodegradibility.

COc1ccc(C(c2ccc(OC)cc2)C(Cl)(Cl)Cl)cc1 [Methoxychlor, reference compound]
mouse toxicity (head is a drawing): 1000
